Data as given in patent publication US20250319292A1, “MICRONEEDLES AND METHODS FOR TREATING THE SKIN” (THE BRIGHAM AND WOMEN'S HOSPITAL, INC., priority 2021, published 2025).

Assays:
[1] = Chemokine release kinetics (labeled IL-2 from HA-based MNs); format: physicochemical
Description: Recombinant human IL-2 was fluorescently labeled with the Lightning-Link® Rapid Alexa Fluor®594 kit (Novus Biologicals, USA) following the manufacturer's instructions. Release studies were conducted with HA-based MNs loaded with labeled IL-2. IL-2-loaded, HA-based MNs were placed in Eppendorf Tubes®, immersed with phosphate buffered saline (PBS) (1 mL), and incubated under rotation at 37° C. 100 μL of PBS was replaced at predetermined time point, and IL-2 fluorescence was assessed by checking the fluorescence at 650-665 nm using a microplate reader.
(§1) The efficient release delivery of cytokines from the MNs was initially studied using fluorescently labeled IL-2. […] To validate this hypothesis, the interaction with the cytokine was blocked by treating the hydrogel with an end-capping agent, the amino acid glycine, whose amino-end groups would preferentially interact with the crosslinker's non-reacted NHS-terminal groups.

[2] = HA-based MNs loading capacity (labeled IL-2); format: physicochemical; settings: fluorescence quantification
Description: HA-based MNs were loaded with labeled IL-2 concentrations. IL-2-loaded MNs were digested as described above, and IL-2 loading capacity was assessed by checking the IL-2 fluorescence at 650-665 nm using a microplate reader.
as §1

In the case of “IL-2: recombinant human IL-2, fluorescently labeled, loaded in HA-based MNs as drug model”, the “IL-2 release from MNs without end-capping” value ([1]; PBS 37° C., no glycine end-capping) is reported as “no IL-2 was released”, the “cytokine released from end-capped hydrogel MNs” value ([1]; glycine end-capping, within the first 30 minutes) is reported as “more than 80%” and the “relation of loaded and retrieved IL-2 after digestion of MN patches” value [2] is reported as “linear correlation”.
